Data from PubChem BioAssay AID488969 (Vanderbilt High Throughput Screening Facility, 2010).
The entries are a selection whose mix differs from that of the whole data set.

Chains of the proteins cited; added tags and fusions are not shown. Lines headed by an entry give the natural chain unless they say otherwise; changes in a name come on top.
UniProt P70579: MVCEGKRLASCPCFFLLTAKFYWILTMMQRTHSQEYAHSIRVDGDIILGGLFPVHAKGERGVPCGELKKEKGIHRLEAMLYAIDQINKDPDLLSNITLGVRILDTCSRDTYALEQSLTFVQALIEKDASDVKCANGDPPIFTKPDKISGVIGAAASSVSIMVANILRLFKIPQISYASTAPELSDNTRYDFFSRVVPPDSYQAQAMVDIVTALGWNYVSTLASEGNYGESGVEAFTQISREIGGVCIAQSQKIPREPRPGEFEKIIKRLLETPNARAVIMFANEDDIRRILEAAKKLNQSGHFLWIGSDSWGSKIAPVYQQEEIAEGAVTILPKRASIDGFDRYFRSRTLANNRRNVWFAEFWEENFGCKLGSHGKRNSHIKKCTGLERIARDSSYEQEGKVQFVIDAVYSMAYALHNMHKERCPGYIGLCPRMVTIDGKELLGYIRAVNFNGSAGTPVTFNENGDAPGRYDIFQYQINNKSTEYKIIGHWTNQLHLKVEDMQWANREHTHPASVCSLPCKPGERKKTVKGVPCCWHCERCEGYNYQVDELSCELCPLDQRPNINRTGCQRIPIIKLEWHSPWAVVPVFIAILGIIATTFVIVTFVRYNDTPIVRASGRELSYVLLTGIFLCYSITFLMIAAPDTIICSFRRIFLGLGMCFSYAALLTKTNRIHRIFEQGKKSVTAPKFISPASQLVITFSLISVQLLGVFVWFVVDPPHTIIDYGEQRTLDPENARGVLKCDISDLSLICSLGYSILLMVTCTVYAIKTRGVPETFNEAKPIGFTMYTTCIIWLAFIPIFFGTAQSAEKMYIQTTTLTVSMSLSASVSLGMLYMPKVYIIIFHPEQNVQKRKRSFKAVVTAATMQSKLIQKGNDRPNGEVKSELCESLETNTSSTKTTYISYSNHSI

Each compound was assayed against Metabotropic glutamate receptor 8 (Rattus norvegicus) (UniProt P70579) (assay: mGluR8 Gi/Go-coupled signaling modulation – cell-based, rat, thallium flux, HTS, primary screen (AID 488969)). Settings: HEK293 rat mGluR8, GIRK (G protein-gated inwardly rectifying potassium channel) thallium flux, FluoZin2; at 10 µM; stronger effect = higher value; submaximal glutamate (EC20) added with thallium.
Compound CCN(N=Nc1nonc1N)c1nonc1N has a z-score of -0.0982. With CCOP(=O)(Nc1ccccc1)OCC the z-score was -0.127. For Cc1cc(SC(NC(=O)c2ccc(F)cc2)C(Cl)(Cl)Cl)ncn1 (stereo not given), the z-score was 0.536. With Oc1ccccc1CNc1ccccn1 the z-score was -0.268. CC(C)CC(=O)NC(Sc1ccc(Cl)cc1)C(Cl)(Cl)Cl (stereo not given) showed a z-score of -0.573. With CN1CCCC(OC(=O)C(c2ccccc2)c2ccccc2)C1 (stereo not given) the z-score was -0.259. In the case of CC1CCN(C(=O)Oc2c(Cl)cc(Cl)c3cccnc23)CC1, the z-score is reported as -0.181. For CCc1nc2c(n1)c1c(non1O)c1c2no[n+]1[O-], the z-score was -0.122. For CC(=O)N1C2C3N(C(C)=O)C1C1N(C(C)=O)C(C(N1C(C)=O)N3C(C)=O)N2C(C)=O, the z-score was -0.0533. Work on O=[N+]([O-])c1cccc2n[nH]nc12 yielded a z-score of -0.414. O=C(OC1CN2CCC1CC2)c1cccc(Cl)c1 (stereo not given) showed a z-score of -2.06. Work on O=P(Nc1nccs1)(c1ccccc1)c1ccccc1 yielded a z-score of 0.11. For CC(C)C(=O)NC(Sc1ccccc1)C(Cl)(Cl)Cl (stereo not given), the z-score was -0.117. In the case of O=P1(Nc2nc3ccc(Cl)cc3s2)COc2ccccc2O1 (stereo not given), the z-score is reported as 0.106. In the case of CCC(=O)N1C2C3N(C(=O)CC)C1C1N(C(=O)CC)C(C(N1C(=O)CC)N3C(=O)CC)N2C(=O)CC, the z-score is reported as -0.214. Compound COC(=O)c1cc2c(s1)N=C(c1ccccc1)N(C)P2(=O)N1CCOCC1 (stereo not given) has a z-score of 0.062. For CCOP1(=S)c2c(C)nn(CCC#N)c2N=C(c2ccc(F)cc2)N1C (stereo not given), the z-score was 0.448. For O=[N+]([O-])c1ccc2c(c1)nnn2O, the z-score was 0.00196. CCOP1(=S)c2c(C)nn(CCC#N)c2N=C(c2ccccc2F)N1C (stereo not given) showed a z-score of -0.176. Work on COc1cc(C2NCCC3(OCCO3)C2(C)C)cc(OC)c1OC (stereo not given) yielded a z-score of 0.0961. Cc1cccc(OCC(=O)OC2CN3CCC2CC3)c1 (stereo not given) showed a z-score of -0.00121. Work on CC1(CBr)Cn2c(nc3ccccc3c2=O)S1 (stereo not given) yielded a z-score of -0.199. Work on O=P1(Nc2ccc(Br)cn2)COc2ccccc2OC1 yielded a z-score of 0.0639. Work on Cc1ccc(OCC(=O)OC2CN3CCC2CC3)cc1 (stereo not given) yielded a z-score of 0.212. Work on O=P1(Nc2ncccn2)COc2ccccc2OC1 yielded a z-score of 0.429. Cc1nn(-c2ccccc2)c2c1P(=O)(N1CCOCC1)N(C)C(c1ccccc1)=N2 (stereo not given) was tested, and the z-score was 0.435. In the case of Cc1cc(SC(NC(=O)c2ccccc2)C(Cl)(Cl)Cl)nc(C(C)C)n1 (stereo not given), the z-score is reported as -0.219. Compound CCC(C)N(CC(C)C)C(=S)SC(NC(C)=O)C(Cl)(Cl)Cl (stereo not given) has a z-score of 1.4. O=C(COc1ccccc1)OC1CN2CCC1CC2 (stereo not given) gave a z-score of 0.278. In the case of COP1(=S)c2c(C)nn(CCC#N)c2N=C(c2ccc(F)cc2)N1C (stereo not given), the z-score is reported as 0.0466. Cc1c2c(nc3ccccc13)SC(C(Cl)Cl)C2 (stereo not given) showed a z-score of -0.583. O=C(OC1CN2CCC1CC2)C12CC3CC(CC(C3)C1)C2 (stereo not given) showed a z-score of -0.0387. With CCN(CC)C(=S)SC(NC=O)C(Cl)(Cl)Cl (stereo not given) the z-score was 0.0409. ClCCSc1nnc(-c2cccnc2)o1 was tested, and the z-score was -0.868. Cc1ccc2nc3c(c(C)c2c1)CC(C(Cl)Cl)S3 (stereo not given) gave a z-score of -0.497.
